Target: PKa (Homo sapiens, UniProt P03952)
Test: DXS-activated cleavage of HK in undiluted plasma (immunoblot)
Format: biochemical
Conditions: 300 nM inhibitor; % of HK remaining after 20 min incubation with DXS vs unactivated plasma
Description: DXS-activated cleavage of HK in undiluted plasma was performed in the absence or presence of 300 nM PKa inhibitor and quantified by SDS-PAGE gel electrophoresis, using 7.5% Criterion TGX Precast gels (Biorad). Transfer was made onto Immunobilon-FL PVDF membrane. Image analysis was done using the LICOR imaging system. Mouse monoclonal anti-HK antibody (MAB15692, R&D systems) was used for traditional immunoblotting. Data presented as % of HK remaining after 20 min incubation with DXS compared to HK levels in unactivated plasma (Table 1).

The chains behind the UniProt entries cited, without tags or fusion partners. Residues count along the entry.
UniProt P03952, 20-390 partner limits assumed: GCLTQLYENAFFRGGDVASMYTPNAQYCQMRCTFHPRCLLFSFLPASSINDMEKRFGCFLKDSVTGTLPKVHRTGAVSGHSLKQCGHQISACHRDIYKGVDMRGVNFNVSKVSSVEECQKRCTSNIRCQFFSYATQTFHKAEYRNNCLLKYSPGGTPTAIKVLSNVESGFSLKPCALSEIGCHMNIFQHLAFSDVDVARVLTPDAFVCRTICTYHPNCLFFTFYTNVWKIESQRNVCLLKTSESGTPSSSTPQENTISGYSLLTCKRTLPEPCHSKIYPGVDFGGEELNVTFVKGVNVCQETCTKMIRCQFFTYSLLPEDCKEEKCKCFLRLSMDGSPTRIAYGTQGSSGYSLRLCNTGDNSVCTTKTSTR
UniProt P03952, 391-638 limits assumed: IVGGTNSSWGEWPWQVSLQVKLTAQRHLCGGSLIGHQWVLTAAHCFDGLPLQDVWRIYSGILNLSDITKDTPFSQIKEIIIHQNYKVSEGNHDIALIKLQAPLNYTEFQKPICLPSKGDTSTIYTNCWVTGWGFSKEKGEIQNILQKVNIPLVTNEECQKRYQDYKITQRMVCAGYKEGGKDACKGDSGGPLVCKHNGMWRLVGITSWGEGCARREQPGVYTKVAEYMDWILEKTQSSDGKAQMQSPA

HK protection: 85%
Structure (SMILES): COCc1nn(Cc2ccc(Cn3ccccc3=O)cc2)cc1C(=O)NCc1nccc(OC)c1F [compound of Formula A, N-[(3-fluoro-4-methoxypyridin-2-yl)methyl]-3-(methoxymethyl)-1-({4-[(2-oxopyridin-1-yl)methyl]phenyl}methyl)pyrazole-4-carboxamide]
